Values joined by “and” are separate entries in the source; they are usually repeats but may differ in a detail not shown here. Identical values can stand only once. This is a selection; strong and weak results do not stand in their true shares. Some of these compounds have results that are not shown, active ones among them. Active and inactive are the calls of the source. No stated cut-off is given here; in the data, active means max activation above about 30%; inactive means the rest.

By UniProt entry, the sequences of proteins in these tests, tags left out.
UniProt P35462, whole entry: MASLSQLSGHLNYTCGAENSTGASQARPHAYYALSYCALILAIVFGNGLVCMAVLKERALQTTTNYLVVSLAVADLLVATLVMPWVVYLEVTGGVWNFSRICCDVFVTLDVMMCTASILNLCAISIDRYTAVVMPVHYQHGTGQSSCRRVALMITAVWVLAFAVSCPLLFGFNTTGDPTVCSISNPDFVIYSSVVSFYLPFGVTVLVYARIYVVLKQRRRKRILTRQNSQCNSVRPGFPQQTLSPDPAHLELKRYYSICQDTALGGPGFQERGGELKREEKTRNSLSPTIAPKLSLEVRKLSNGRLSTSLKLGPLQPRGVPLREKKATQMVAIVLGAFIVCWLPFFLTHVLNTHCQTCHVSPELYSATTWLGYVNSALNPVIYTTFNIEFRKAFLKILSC

The target of this test is D(3) dopamine receptor (Homo sapiens) (UniProt P35462). Briefly: qHTS of D3 Dopamine Receptor Agonist: qHTS. Further: 0% is about no effect. The following applies: D3R DiscoveRx beta-arrestin cells, luminescence, 90 min; active compounds read high. The text has this:
D3 DARs represent a very important target for the treatment of several neuropsychiatric disorders. Indeed, one of the most promising therapeutic applications for the D3 DAR is in the area of addiction and related disorders. […] These findings have been observed with a number of addictive substances including cocaine, amphetamine, nicotine, and alcohol. […] Antagonism of the D3 DAR may also be therapeutic in the treatment of schizophrenia or psychosis. […] Since the D3 DAR is expressed in areas of the CNS associated with the control of mood and emotion, it has been hypothesized that selective antagonism of the D3 DAR may be effective in treating psychosis without inducing the motor side effects typically seen with D2 DAR antagonists.
This part of the project aims to discover novel agonist.
NIH Chemical Genomics Center [NCGC]
NIH Molecular Libraries Probe Centers Network [MLPCN]
Assay Submitter (PI): David Sibley, NINDS
Freshly passaged cells are plated in 1536 well white, solid bottom plates at a density of 1500 cells/well in 3microl of complete media. After an overnight incubation at 37 degrees C in 5% CO2, cells are loaded with 23nl of test compound from the compound library (as well as dopamine controls) using a 1536 pintool and incubated at 37 degrees C for 90 minutes. Two microliters of DiscoveRx reagent is then added to all cells, and they are incubated for an additional 30 - 60 minutes at room temperature. Following incubation, luminescence is measured on a ViewLux CCD-based luminometer reader using a 20 sec exposure time.
Background: qHTS replaces the single test concentration by a dilution series.
`CC(C)N1C(=O)CC2(CCN(CCOC(=O)C(O)(c3ccccc3)c3ccccc3)CC2)C1=O`: the max activation was inactive: 4.11%.

In the case of `CN(C)C1(CNC(=O)c2cccc(Cl)c2)CCCCC1`, the max activation is inactive: -18.7%.

For the compound `CCN(CC)CC(C)C(C)OC(=O)C(O)(c1ccccc1)c1ccccc1` (configuration not stated), the max activation is inactive: -18.6%.

With `COc1cc(SC)ccc1C(=O)NCC1(N(C)C)CCCCC1`, the max activation was inactive: 2.77%.

For `CN(C)C1(CNC(=O)c2ccccc2F)CCCCC1`, the max activation was inactive: -16.9%.

As for `Cc1ccc(C(=O)NCC2(N3CCCCC3)CCCCC2)cc1`, the max activation was inactive: -23.6%.

As for `O=C(NCC1(N2CCCCC2)CCCCC1)c1cc([N+](=O)[O-])ccc1Cl`, the max activation was inactive: 2.6%.

With `CN1[C@@H]2CC[C@H]1CC(OC(=O)C(O)(c1ccccc1)c1ccccc1)C2` (some centres not stated), the max activation is inactive: -3.68%.

In the case of `C=CCN1CCN(CCOC(=O)C(O)(c2ccccc2)c2ccccc2)CC1`, the max activation was inactive: -0.776%.

Regarding `O=C(NCC1(N2CCCCC2)CCCCC1)c1cc(F)c(F)cc1Cl`, the max activation is inactive: 1.3%.

As for `CCN1CCCC(OC(=O)C2(O)c3ccccc3C=Cc3ccccc32)C1` (configuration not stated), the max activation was inactive: -5.39%.

As for `Cc1cc(C(=O)NCC2(N3CCCCC3)CCCCC2)ccc1[N+](=O)[O-]`, the max activation was inactive: -6.1%.

For the compound `O=C(NCC1(N2CCCCC2)CCCCC1)c1cccc(Br)c1`, the max activation was inactive: -15.2%.

For `COc1ccc(C(=O)NCC2(N(C)C)CCCCC2)cc1`, the max activation was inactive: 1.69%.

With `CCOc1cccc(C(=O)NCC2(N(C)C)CCCCC2)c1`, the max activation was inactive: -21.7%.

With `Cc1ccccc1C(=O)NCC1(N2CCCCC2)CCCCC1`, the max activation was inactive: -3.31%.

With `CN(C)C1(CNC(=O)c2ccccc2[N+](=O)[O-])CCCCC1`, the max activation was inactive: 0.538%.

With `CN(C)c1ccc(C(=O)NCC2(N(C)C)CCCCC2)cc1`, the max activation is inactive: -5.41%.

In the case of `CN(C)C1CCCC1OC(=O)C(O)(c1ccccc1)c1ccccc1` (configuration not stated), the max activation is inactive: -1.16%.

As for `CN1CCCC(OC(=O)C(O)(c2ccccc2)c2ccccc2)C1` (configuration not stated), the max activation is inactive: -1.67%.

For `CCCCOc1ccccc1C(=O)NCC1(N(C)C)CCCCC1`, the max activation was inactive: -21.6%.

Regarding `COc1ccc(C(=O)NCC2(N(C)C)CCCCC2)cc1Cl`, the max activation is inactive: -21%.

For the compound `COc1cccc(C(=O)NCC2(N3CCCCC3)CCCCC2)c1`, the max activation was inactive: -8.59%.

As to `COc1ccc(Cl)cc1C(=O)NCC1(N(C)C)CCCCC1`, the max activation is inactive: -35.9%.

`O=C(NCC1(N2CCCCC2)CCCCC1)c1cccc(Cl)c1`: the max activation is inactive: -14.7%.

For `CN(C)C1(CNC(=O)c2ccc(Br)cc2)CCCCC1`, the max activation was inactive: -5.06%.

Regarding `COc1cc(C(=O)NCC2(N(C)C)CCCCC2)c([N+](=O)[O-])cc1OC`, the max activation is inactive: 2.16%.

As to `Cc1cccc(C(=O)NCC2(N(C)C)CCCCC2)c1`, the max activation is inactive: -21.5%.

Consider `COc1cc(C(=O)NCC2(N(C)C)CCCCC2)cc(OC)c1OC`, for which the max activation was inactive: -19.8%.

As for `COc1ccc(Br)c(C(=O)NCC2(N3CCCCC3)CCCCC2)c1`, the max activation was inactive: -1.71%.

`C=C(C)C#CC(O)(C(=O)OC1CCN(C)CC1)c1ccccc1` (configuration not stated): the max activation is inactive: -12.2%.

Turning to `CN(C)c1cccc(C(=O)NCC2(N(C)C)CCCCC2)c1`, the max activation was inactive: -6.88%.

`CC(C)Oc1ccc(C(=O)NCC2(N(C)C)CCCCC2)cc1`: the max activation was inactive: 0.763% and inactive: 7.73%.

In the case of `O=C(OCCN1CCCC1)C(O)(c1ccccc1)c1ccccc1`, the max activation is inactive: 2.33%.

On to `O=C(OC1CN2CCC1CC2)C(CO)(c1ccccc1)c1ccccc1` (configuration not stated), for which the max activation was inactive: -6.25%.

Take `COc1cccc(C(=O)NCC2(N3CCOCC3)CCCCC2)c1`: the max activation was inactive: -21.2%.

Take `CC(C)COc1ccc(C(=O)NCC2(N(C)C)CCCCC2)cc1`: the max activation is inactive: -19.4%.

For the origin of these results see PubChem BioAssay AID652048 (National Center for Advancing Translational Sciences (NCATS), 2013).
